Reference: publication PMC7150870 (Toxins, 2020)
pIC50: −log10 of the molar value. Marks after values point to notes of the source that are not given here.

How the values were obtained:
Caco-2 cells [1] = conditions: cited from earlier work
[2] = tested on: HepG2, Caco-2, RAW 264.7, and HEK 293T cells; conditions: human (HepG2, Caco-2, HEK 293T); mouse (RAW 264.7)
Caco-2 cells [3] = conditions: human (Caco-2), mouse (RAW 264.7)
Caco-2 = conditions: cited from earlier work
PK15 = conditions: cited from earlier work

Substance | concentration with significant DNA damage (Caco-2 cells [1]) | pIC50 [2] | transepithelial transport, Apical Medium (Caco-2 cells [3]) | transepithelial transport, Basolateral Medium (Caco-2 cells [3]) | transepithelial transport, Caco-2 Cells (Caco-2 cells [3]) | transepithelial transport, Raw 264.7 Cells (Caco-2 cells [3]) | transepithelial transport, Total (Caco-2 cells [3]) | percentage of DNA in comet tail with respect to the negative control (HEK 293T cells) | concentration causing DNA damage in Caco-2 (Caco-2) | concentration causing DNA damage in PK15 (PK15)
enniatin A1 [ENN-A1] | 3000 nM | < 7.30 | 9.52 ± 3.02^a % | 13.06 ± 0.45^b % | 2.09 ± 0.28^c % | 0.22 ± 0.03^b % | 24.89 ± 3.24^a % | – | – | –
beauvericin | – | < 7.30 | 10.40 ± 3.89^a % | 2.31 ± 0.24^a % | 10.36 ± 0.98^d % | 0.57 ± 0.03^c % | 23.65 ± 3.33^a % | no significant DNA damage | 12000 nM | 500 nM
enniatin A [ENN-A] | 1500 nM | < 7.30 | 15.08 ± 5.18^ab % | 16.18 ± 3.17^b % | 10.76 ± 0.43^d % | 0.29 ± 0.04^b % | 42.31 ± 5.00^a % | – | – | –
